IC50 data for one compound are collected here from patent publication US20250215014A1, “KINASE INHIBITORS, PREPARATION METHODS AND USES THEREOF” (InventisBio Co., Ltd., priority 2022, published 2025).

Protein sequences, listed by entry. Tags and fused reporters are not part of them.
UniProt P23743, whole entry: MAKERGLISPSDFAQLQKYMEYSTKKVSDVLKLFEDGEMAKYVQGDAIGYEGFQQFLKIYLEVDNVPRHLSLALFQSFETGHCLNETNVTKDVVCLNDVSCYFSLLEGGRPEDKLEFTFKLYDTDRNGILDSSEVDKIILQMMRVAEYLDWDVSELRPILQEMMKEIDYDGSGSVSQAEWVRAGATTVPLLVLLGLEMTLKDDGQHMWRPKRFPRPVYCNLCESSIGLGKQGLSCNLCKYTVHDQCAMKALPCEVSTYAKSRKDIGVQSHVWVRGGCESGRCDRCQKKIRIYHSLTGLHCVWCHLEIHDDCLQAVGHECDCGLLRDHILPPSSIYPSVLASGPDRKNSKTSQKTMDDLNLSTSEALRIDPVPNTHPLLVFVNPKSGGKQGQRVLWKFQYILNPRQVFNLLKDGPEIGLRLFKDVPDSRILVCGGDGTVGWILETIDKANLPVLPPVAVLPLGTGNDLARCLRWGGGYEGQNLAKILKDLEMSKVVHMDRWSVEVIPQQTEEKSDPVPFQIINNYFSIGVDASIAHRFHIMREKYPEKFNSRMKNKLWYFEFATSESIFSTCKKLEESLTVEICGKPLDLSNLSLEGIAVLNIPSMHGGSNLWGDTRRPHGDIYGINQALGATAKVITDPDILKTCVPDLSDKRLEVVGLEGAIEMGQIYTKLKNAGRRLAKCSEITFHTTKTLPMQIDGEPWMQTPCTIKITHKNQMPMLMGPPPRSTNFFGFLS
UniProt Q13574, whole entry: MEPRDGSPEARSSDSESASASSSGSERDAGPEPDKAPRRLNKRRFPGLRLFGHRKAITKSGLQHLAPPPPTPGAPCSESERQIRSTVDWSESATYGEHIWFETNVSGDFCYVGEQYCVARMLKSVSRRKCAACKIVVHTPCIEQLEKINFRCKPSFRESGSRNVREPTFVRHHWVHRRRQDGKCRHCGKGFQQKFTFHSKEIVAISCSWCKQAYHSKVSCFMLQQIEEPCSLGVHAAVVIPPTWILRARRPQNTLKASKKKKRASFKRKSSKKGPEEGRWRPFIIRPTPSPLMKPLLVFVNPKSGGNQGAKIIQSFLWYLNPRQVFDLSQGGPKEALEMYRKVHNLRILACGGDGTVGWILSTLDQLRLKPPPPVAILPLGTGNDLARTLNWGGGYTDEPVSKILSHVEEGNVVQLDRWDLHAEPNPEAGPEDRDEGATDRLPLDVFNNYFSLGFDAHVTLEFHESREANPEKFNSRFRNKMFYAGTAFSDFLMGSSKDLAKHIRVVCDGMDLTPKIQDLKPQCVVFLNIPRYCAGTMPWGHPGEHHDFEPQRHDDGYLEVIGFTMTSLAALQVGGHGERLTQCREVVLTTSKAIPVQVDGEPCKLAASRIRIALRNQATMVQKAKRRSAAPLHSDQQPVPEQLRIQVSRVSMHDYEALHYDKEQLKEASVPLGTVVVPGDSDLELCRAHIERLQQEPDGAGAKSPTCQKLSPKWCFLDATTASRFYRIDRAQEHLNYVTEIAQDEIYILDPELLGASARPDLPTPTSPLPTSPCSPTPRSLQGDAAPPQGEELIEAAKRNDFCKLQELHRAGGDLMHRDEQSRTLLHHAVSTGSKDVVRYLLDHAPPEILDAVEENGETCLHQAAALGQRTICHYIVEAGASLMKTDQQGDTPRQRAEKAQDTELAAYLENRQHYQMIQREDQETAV

For one test, the target named is DGKa (Homo sapiens (Human), UniProt P23743). Description: DGK ADP-Glo Kinase Assay (DGKa). The following applies: read-out: DGKa kinase IC50, 10 nM DGKa, 15 uM ATP. Format: biochemical. (In general: ADP-Glo first removes unused ATP, then detects ADP through luciferase.)
In another test the target is DGKz (Homo sapiens (Human), UniProt Q13574). Description: DGK ADP-Glo Kinase Assay (DGKz). It counts as biochemical. The following applies: read-out: DGKz kinase IC50, 5 nM DGKz, 15 uM ATP.

Broadly, the IC50 is the concentration that gives 50% inhibition. With `CC[C@@H]1CN2c3c(c(=O)n(C)c4ccc(C#N)nc34)OC[C@@H]2CN1[C@@H](CC)c1ccc(C(F)(F)F)cc1` [Compound 121], the IC50 on DGKa and at DGKz was below 100 nM each time.
